Measurements: US11597726B2 (Certego Therapeutics Inc., priority 2020, dated 2023)

System: c-fos
Experiment: Pharmacomapping: whole-brain drug-evoked c-fos activation
Details: for doses at which strong activation of the caudoputamen (CP) is seen: gaboxadol tested at 6 to 50 mg/kg, d2-gaboxadol at 6 to 30 mg/kg
[1] = gaboxadol at 30 mg/kg and higher, d2-gaboxadol at 10 mg/kg and higher
[2] = gaboxadol at 10 and 20 mg/kg, d2-gaboxadol at 6 mg/kg

SMILES | activation of medial orbital cortex (ORBm) and accessory olfactory nucleus (AON) [1] | activation of medial orbital cortex (ORBm) and accessory olfactory nucleus (AON) [2] | doses at which strong activation of the caudoputamen (CP) is seen
[2H]C1([2H])NCCc2c1o[nH]c2=O [d2-gaboxadol 7,7, 4,5,6,7-tetrahydroisoxazolo[5,4-c]pyridin-3(2H)-one-7,7-d2] | strongly diminished | Strong activation | already at 10 mg/kg as well as at 20 and 30 mg/kg
Oc1noc2c1CCNC2 [gaboxadol, 4,5,6,7-tetrahydroisoxazolo (5,4-c) pyridin-3-ol] | strongly diminished | Strong activation | only at higher doses of 30, 40 and 50 mg/kg
